The text below walks through data of patent US20100178299A1, “METHODS AND COMPOSITIONS FOR IMPROVING IMMUNE RESPONSES” (Northeastern University, priority 2007, published 2010).

Assay [1] relates to TNP-specific IgM. As to the kind of experiment: TNP-KLH/CFA immunization with IFA booster, indirect ELISA of TNP-specific IgM (Example 2). It is filed as in vivo, C57B1/6 mice. The conditions noted are these: combined caffeine (1 mg/ml drinking water) and 60% oxygen.
Assay [2] concerns TNP-specific IgM. The conditions noted are these: caffeine 1 mg/ml in drinking water, 20 or 60% oxygen, TNP-KLH immunization.

Turning to `Cn1c(=O)c2c(ncn2C)n(C)c1=O` [caffeine, 1,3,7-trimethylxanthine], the “production of immunoglobulins (antigen-specific antibodies, indirect ELISA)” value in the assay with TNP-specific IgM [1] was “significantly improved production of immunoglobulins”. Also, in the assay on TNP-specific IgM [2], the “production of specific antibodies” value was “can enhance the production of specific antibodies of different classes of immunoglobulins”.
